Target: MMP-13 (Homo sapiens, UniProt P45452)
Assay: MMP-13 inhibition (thiopeptide or fluorescent peptide substrate)
Format: biochemical
Settings: read-out: MMP-13 IC50

“4-{[4-(4-Chlorophenyloxy)benzenesulfonyl]methylamino}-1,3-dimethyl-1H-pyrazolo[3,4-b]pyridine-5-carboxylic Acid, Hydroxyamide [Example 89]” was tested, and the IC50 was 1.1 nM.

Source: patent US6534491B2, “Preparation and use of ortho-sulfonamido bicyclic heteroaryl hydroxamic acids as matrix metalloproteinase and tace inhibitors” (priority 1996, dated 2003)
